This note sets out measurements from PubChem BioAssay AID1224863 (Southern Research Institute, 2016).

By UniProt entry, the sequences of proteins in these tests, tags left out. Chains listed by the source or under a name are the forms on record and can include a tag or linker.
UniProt P13569, with tags, fused parts or gaps F508del: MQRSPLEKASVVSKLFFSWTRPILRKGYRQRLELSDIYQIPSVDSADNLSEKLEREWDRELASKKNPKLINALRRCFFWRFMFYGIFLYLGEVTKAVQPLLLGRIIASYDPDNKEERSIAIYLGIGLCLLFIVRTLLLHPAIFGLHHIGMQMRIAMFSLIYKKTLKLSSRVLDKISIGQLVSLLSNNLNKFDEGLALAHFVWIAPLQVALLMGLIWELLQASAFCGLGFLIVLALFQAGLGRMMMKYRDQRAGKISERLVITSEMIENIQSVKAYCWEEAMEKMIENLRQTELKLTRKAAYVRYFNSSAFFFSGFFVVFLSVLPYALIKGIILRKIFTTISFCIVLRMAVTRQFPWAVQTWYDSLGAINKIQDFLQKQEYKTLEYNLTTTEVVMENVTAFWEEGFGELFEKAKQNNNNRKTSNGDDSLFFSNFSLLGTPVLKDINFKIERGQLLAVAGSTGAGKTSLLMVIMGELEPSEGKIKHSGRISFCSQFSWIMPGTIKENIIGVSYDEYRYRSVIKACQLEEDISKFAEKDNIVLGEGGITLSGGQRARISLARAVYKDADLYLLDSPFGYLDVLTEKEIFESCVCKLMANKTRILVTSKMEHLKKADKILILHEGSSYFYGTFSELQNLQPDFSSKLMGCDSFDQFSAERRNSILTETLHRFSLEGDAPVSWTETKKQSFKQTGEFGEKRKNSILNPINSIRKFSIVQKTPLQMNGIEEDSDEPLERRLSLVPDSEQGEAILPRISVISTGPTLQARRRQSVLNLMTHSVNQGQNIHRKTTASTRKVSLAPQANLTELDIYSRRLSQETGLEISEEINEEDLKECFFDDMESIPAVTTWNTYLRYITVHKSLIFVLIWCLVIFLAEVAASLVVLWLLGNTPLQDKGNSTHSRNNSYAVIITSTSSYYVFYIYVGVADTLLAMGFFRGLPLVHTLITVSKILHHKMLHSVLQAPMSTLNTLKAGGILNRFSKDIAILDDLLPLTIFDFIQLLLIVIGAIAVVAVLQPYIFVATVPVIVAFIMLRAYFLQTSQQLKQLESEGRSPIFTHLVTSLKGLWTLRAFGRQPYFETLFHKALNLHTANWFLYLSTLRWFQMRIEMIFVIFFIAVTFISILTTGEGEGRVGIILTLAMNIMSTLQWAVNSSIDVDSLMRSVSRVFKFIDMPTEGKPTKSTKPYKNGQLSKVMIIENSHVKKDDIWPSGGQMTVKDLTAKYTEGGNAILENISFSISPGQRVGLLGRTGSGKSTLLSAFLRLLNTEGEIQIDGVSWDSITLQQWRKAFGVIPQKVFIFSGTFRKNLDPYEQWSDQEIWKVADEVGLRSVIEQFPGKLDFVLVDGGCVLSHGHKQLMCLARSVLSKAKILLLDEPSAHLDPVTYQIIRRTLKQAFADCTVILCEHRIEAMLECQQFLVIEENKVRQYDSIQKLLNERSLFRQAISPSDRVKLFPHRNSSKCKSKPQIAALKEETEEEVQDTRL

The list shows a part of the results, in another mix than the full data. The source made the active and inactive calls.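 How the source made its calls: active means highest signal at least 8 times that of the reference protease inhibitor control at some dose; inactive means the rest.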

In the test the target is Cystic fibrosis transmembrane conductance regulator (Homo sapiens) (UniProt P13569). As to the kind of experiment: compounds raising F508del-CFTR protein level – cell-based, HeLa F508del-CFTR, immunofluorescence, viability, primary screen (AID 1224863).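 Further: total CFTR protein by anti-CFTR immunofluorescence in fixed cells.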 Particulars: immunofluorescence total CFTR, 24 h, dose 25, library dosed in µM, stronger effect = higher value.
As for `CN(CCCl)CCCl`, the max fold increase is inactive: 3.2.
